IC50 data for one compound are collected here from ChEMBL document CHEMBL2203256, “Design and evaluation of azaindole-substituted N-hydroxypyridones as glyoxalase I inhibitors” (Bioorg Med Chem Lett, 2012).

Protein sequences, listed by entry. Tags and fused reporters are not part of them. Lines headed by an entry give the natural chain unless they say otherwise; changes in a name come on top.
UniProt Q04760: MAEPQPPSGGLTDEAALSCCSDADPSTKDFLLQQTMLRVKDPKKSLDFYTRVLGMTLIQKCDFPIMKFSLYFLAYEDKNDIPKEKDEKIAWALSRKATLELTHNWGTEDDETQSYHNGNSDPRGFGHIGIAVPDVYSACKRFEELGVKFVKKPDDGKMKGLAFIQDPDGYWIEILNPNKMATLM

The experiment concerns the target Lactoylglutathione lyase (Homo sapiens, UniProt Q04760). The experiment in a line: Inhibition of human recombinant GLO1 expressed in Escherichia coli BL21 assessed as decrease in reduced glutathione level after 1 hr by Ellman's method. On the technique in general: In Ellman's method for cholinesterases, released thiocholine reacts with DTNB.

`COCCCn1ccc2cc(-c3cc(-c4ccccc4)cc(=O)n3O)cnc21`: the IC50 is 0.011 µM.

As a reminder, the IC50 is the concentration at which inhibition is half-maximal.
